assay: soluble on expression in E. coli; label from the status in PepcDB or PDB records

Soluble on expression in E. coli, soluble:
GLLSILRKLKSAPDQEVRILLLGLDNAGKTTLLKQLASEDISHITPTQGFNIKSVQSQGFKLNVWDIGGQRKIRPYWRSYFENTDILIYVIDSADRKRFEETGQELTELLEEEKLSCVPVLIFANKQDLLTAAPASEIAEGLNLHTIRDRVWQIQSCSALTGEGVQDGMNWVCKNVNAKKK
KAKNLNGGLRRSVAPAAPTSSDFSPGDLVWAKMEGYPWWPSLVYNHPFDGTFIREKGKSVRVHVQFFDDSPTRGWVSKRLLKPYTGSKSKEAQKGGHFYSAKPEILRAMQRADEALNKDKIKRLELAVSDEPSE
MEEGGSTGSAGSDSSTSGSGGAQQRELERMAEVLVTGEQLRLRLHEEKVIKDRRHHLKTYPNCFVAKELIDWLIEHKEASDRETAIKLMQKLADRGIIHHVCDEHKEFKDVKLFYRFRKDDGTFPLDNEVKAFMRGQRLYEKLMSPENTLLQPREEEGVKYERTFMASEFLDWLVQEGEATTRKEAEQLCHRLMEHGIIQHVSSKHPFVDSNLLYQFRMNFRRRRRLMELLNEKSPSSQETHDSPFCLRKQSHDNRKSTSFMSVSPSKEIKIVSAVRRSSMSSCGSSGYFSSSPTLSSSPPVLCNPKSVLKRPVTSEELLTPGAPYARKTFTIVGDAVGWGFVVRGSKPCHIQAVDPSGPAAAAGMKVCQFVVSVNGLNVLHVDYRTVNNLILTGPRTIVMEVMEELEC
MRGSHHHHHHGSMSVSEIFVELQGFLAAEQDIREEIRKVVQSLEQTAREILTLLQGVHQGAGFQDIPKRCLKAREHFGTVKTHLTSLKTKFPAEQYYRFHEHWRFVLQRLVFLAAFVVYLETETLVTREAVTEILGIEPDREKGFHLDVEDYLSGVLILASELSRLSVNSVTAGDYSRPLHISTFINELDSGFRLLNLKNDSLRKRYDGLKYDVKKVEEVVYDLSIRGFNKETAAACVEK
MSSRGGKKKSTKTSRSAKAGVIFPVGRMLRYIKKGHPKYRIGVGAPVYMAAVLEYLTAEILELAVNAARDNKKGRVTPRHILLAVANDEELNQLLKGVTIASGGVLPNIHPELLAKKRGS
SASLLKVDQEVKLKVDSFRERITSEAEDLVANFFPKKLLELDSFLKEPILNIHDLTQIHSDMNLPVPDPILLTNSHDGLDGPTYKKRRLDECEEAFQGTKVFVMPNGMLKSNQQLVDIIEKVKPEIRLLIEKCNTVKMWVQLLIPRIEDGNNFGVSIQEETVAELRTVESEAASYLDQISRYYITRAKLVSKIAKYPHVEDYRRTVTEIDEKEYISLRLIISELRNQYVTLHDMILKNIEKIKRPRSSNAETLY

From the DeepSol protein solubility set
